Experimental data: PubChem BioAssay AID588456 (National Center for Advancing Translational Sciences (NCATS), 2011)
Only a part is listed here, and it is no random draw. Activity calls are given as the source filed them. Calls come from the whole dose curve; as a rule, active = well fitted inhibition curve with a large enough effect; inconclusive = small, poorly fitted or top-dose-only effect; inactive = no such curve, though single readings can be large or run the other way.

By UniProt entry, the sequences of proteins in these tests, tags left out.
UniProt O89049, whole entry: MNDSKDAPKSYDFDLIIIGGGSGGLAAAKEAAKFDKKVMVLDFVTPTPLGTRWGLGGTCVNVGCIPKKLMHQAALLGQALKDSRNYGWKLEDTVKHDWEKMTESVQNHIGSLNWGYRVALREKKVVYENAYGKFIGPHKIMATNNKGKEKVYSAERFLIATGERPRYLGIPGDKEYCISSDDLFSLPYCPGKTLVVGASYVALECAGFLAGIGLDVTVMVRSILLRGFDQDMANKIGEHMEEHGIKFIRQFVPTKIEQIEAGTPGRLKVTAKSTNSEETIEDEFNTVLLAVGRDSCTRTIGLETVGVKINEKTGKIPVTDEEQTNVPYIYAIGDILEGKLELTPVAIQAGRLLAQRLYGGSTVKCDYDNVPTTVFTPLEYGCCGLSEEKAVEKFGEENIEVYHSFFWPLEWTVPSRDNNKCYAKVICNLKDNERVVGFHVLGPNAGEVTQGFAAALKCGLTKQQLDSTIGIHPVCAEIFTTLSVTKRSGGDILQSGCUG

Target: Thioredoxin reductase 1, cytoplasmic (Rattus norvegicus) (UniProt O89049)
Test: qHTS Assay for Substrates of Mammalian Selenoprotein Thioredoxin Reductase 1 (TrxR1): qHTS; note: nearly all actives have a fitted effect of over 50% in size
Settings: purified TrxR1 substrate turnover, NADPH consumption readout; at 114 µM (top of the series)
% is set by controls: 0 for no effect and ±100 for the full control effect.

SMILES	activity change, negative = substrate turnover
CCC(=O)N(c1ccccc1)C1(COC)CCN(CCn2nnn(CC)c2=O)CC1	inactive: 3.94%
CCC(=O)N(c1ccccc1)C1(COC)CCN(CCc2cccs2)CC1	inactive: -0.567%
